The text below walks through data of PMC5155152, “A diverse intrinsic antibiotic resistome from a cave bacterium” (Nature Communications, 2016).

Holding throughout (test): purified protein
Data set [1] concerns CC(=O)SCCNC(=O)CCNC(=O)[C@H](O)C(C)(C)COP(=O)(O)OP(=O)(O)OC[C@H]1O[C@@H](n2cnc3c(N)ncnc32)[C@H](O)[C@@H]1OP(=O)(O)O. The conditions noted are these: 50 mM HEPES pH 7.5, 150 mM NaCl, 0.1 mM EDTA, 25 °C.
Data set [2] deals with C[C@H]1O[C@H](O[C@H]2[C@H](O)[C@@H](O)[C@@H](O)[C@H](O)[C@@H]2O)[C@@H](N)C[C@@H]1NC(=N)C(=O)O. To be noted: 125 μM acetyl-CoA, 50 mM HEPES pH 7.5, 150 mM NaCl, 0.1 mM EDTA, 25 °C.
Data set [3] concerns O=C(N[C@H](CO)[C@H](O)c1ccc([N+](=O)[O-])cc1)C(Cl)Cl. To be noted: 500 μM acetyl-CoA (not saturating), 50 mM HEPES pH 7.5, 150 mM NaCl, 0.1 mM EDTA, 25 °C.

A word on the Km: it is the substrate concentration at which the rate is half of its maximum. For orientation: kcat means the maximal rate divided by the concentration of active sites. In the case of AAC(2′)-IIb (Paenibacillus sp. LC231), in data set [1] (250 μM kasugamycin), the Km was 13 ± 1 µM and the kcat came out at 2.9 ± 0.1 s⁻¹. Further, in data set [2], the Km is 44 ± 2 µM and the catalytic constant (kcat) was 2.95 ± 0.03 s⁻¹.
For the substance CatU (Paenibacillus sp. LC231), the Km in data set [1] (400 μM chloramphenicol) came out at 400 ± 20 µM; in data set [3], 50 ± 3 µM. Further, the kcat in data set [1] (400 μM chloramphenicol) was 94 ± 2 s⁻¹.
